These results are taken from PubChem BioAssay AID651957 (The Scripps Research Institute Molecular Screening Center, 2012).

The chains behind the UniProt entries cited, without tags or fusion partners.
UniProt Q15596, whole entry: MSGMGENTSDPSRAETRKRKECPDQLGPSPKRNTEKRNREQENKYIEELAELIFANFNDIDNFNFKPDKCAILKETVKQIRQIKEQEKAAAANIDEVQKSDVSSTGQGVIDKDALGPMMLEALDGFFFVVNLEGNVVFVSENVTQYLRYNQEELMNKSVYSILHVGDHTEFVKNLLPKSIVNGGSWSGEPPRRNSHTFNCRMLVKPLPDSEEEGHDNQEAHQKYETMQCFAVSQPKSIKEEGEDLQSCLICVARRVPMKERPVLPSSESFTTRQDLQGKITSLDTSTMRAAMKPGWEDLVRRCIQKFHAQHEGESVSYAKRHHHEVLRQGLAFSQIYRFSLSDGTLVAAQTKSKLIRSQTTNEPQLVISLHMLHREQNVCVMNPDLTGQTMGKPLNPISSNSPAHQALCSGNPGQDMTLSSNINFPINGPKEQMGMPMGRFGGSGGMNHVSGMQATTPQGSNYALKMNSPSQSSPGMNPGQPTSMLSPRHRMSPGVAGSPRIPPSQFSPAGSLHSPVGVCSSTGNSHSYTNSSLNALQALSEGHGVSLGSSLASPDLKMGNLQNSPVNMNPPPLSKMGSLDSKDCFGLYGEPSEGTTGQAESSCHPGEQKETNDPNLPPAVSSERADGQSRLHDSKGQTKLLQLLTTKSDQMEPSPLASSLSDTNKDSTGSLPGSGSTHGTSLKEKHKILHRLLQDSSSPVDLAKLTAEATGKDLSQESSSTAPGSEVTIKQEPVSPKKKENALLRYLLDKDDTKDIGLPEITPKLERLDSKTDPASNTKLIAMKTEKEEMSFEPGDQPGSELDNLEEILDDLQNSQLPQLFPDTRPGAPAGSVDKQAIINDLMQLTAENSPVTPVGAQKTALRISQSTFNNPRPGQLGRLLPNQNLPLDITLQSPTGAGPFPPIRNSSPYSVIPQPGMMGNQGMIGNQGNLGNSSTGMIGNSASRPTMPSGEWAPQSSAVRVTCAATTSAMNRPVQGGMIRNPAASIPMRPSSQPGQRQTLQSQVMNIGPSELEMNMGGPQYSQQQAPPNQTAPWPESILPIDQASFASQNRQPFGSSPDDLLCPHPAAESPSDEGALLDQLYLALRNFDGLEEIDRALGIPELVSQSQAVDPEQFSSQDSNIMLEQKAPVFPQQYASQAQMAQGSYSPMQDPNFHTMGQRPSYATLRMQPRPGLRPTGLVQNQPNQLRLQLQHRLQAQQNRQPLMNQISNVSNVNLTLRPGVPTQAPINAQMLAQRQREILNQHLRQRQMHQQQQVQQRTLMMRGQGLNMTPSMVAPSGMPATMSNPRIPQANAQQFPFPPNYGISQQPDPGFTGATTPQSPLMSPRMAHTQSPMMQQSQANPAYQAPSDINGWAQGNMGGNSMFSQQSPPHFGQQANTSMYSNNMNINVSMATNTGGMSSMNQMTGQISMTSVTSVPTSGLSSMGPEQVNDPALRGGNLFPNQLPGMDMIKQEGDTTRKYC

This is a selection; strong and weak results do not stand in their true shares. Some salts and complexes are drawn in separate pieces, as the source files them; their charges need not balance. Activity calls are given as the source filed them.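 How the source made its calls: active means inhibition above the mean inhibition of all tested compounds plus 3 SD, set per campaign (cut at about 52% in these data); inactive means the rest.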

For the assay, the target named is Nuclear receptor coactivator 2 (Homo sapiens) (UniProt Q15596). The assay is described as follows: decrease of SRC2 fusion reporter luminescence – cell-based, SRC2 inhibitor project, primary screen (AID 651957).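 Further: 0% = DMSO treated cells and 100% = cells given Gossypol at 36 µM.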 The note with it: HEK293 GAL4-SRC2 luciferase reporter, at 9 µM, stronger effect = higher value. A general note: In a reporter assay the amount or activity of a reporter protein is the signal.
The term inhibition denotes the change of the read-out against control, counted positive when it falls. With `O=[N+]([O-])c1cc([N+](=O)[O-])c(Nc2ccccn2)c([N+](=O)[O-])c1`, the inhibition was inactive: -3.25%.

For `Cc1c(NP(C)(=O)Oc2ccc(C(C)C)cc2)c(=O)n(-c2ccccc2)n1C` (centres undefined), the inhibition is inactive: 9.23%. The figure for `CCc1ccc(OP(C)(=O)O)cc1` is inactive: -5.66%; for `CP(=O)(Nc1ccccn1)Oc1ccccc1` (centres undefined) it is inactive: -43.6%. The figure for `COc1ccccc1OP(C)(=O)Nc1ccc(C)cc1C` (centres undefined) is inactive: 3.94%; for `COc1ccccc1OP(C)(=O)Nc1ccc(Br)cc1` (centres undefined) it is inactive: 7.28%. The figure for `CN(C)CCOC(=O)C(O)(c1ccccc1)C1CCCC1` (centres undefined) is inactive: -4.27%; for `COc1ccc(OP(C)(=O)Nc2ccccn2)cc1` (centres undefined) it is inactive: -3.86%; for `CP(=O)(OCCOc1ccccc1)OCCOc1ccccc1` it is inactive: -16.1%. For the compound `CP(=O)(Nc1ccc(Cl)cc1Cl)Oc1ccccc1` (centres undefined), the inhibition is inactive: -12.8%. The figure for `CCCCCCCCCCCCCCCC1C[N+](C)(C)CCOP(C)(=O)O1` (centres undefined) is inactive: -8.3%.

For the compound `O=C1C(O)=C([N+](=O)[O-])C(=O)C(O)=C1[N+](=O)[O-]`, the inhibition is inactive: -21.5%. Take `Cc1cc(C)cc(OP(C)(=O)Nc2cccc(C(F)(F)F)c2)c1` (centres undefined): the inhibition is inactive: -19.6%. `COc1ccc(OP(C)(=O)Nc2ccccc2Br)cc1` (centres undefined): the inhibition was inactive: -14.7%. The figure for `COc1ccccc1OP(C)(=O)Nc1ccc(C)c(C)c1` (centres undefined) is inactive: -0.24%; for `Nc1ccc2c(ccc3cccnc32)n1.O=[N+]([O-])c1cc([N+](=O)[O-])c(O)c([N+](=O)[O-])c1` it is inactive: -79.2%; for `CP(=O)(OC12CC3CC(CC(C3)C1)C2)OC12CC3CC(CC(C3)C1)C2` it is inactive: -12%. As for `CCOC(=O)c1ccc(NP(C)(=O)Oc2ccc(Cl)cc2)cc1` (centres undefined), the inhibition is inactive: -2.68%. Regarding `CP(=O)(Nc1ccc(Cl)cc1)Oc1ccc(F)cc1` (centres undefined), the inhibition is inactive: -14.4%. The figure for `CC(C)(C)c1ccc(OP(C)(=O)O)cc1` is inactive: 15.2%. The figure for `COc1ccccc1OP(C)(=O)Nc1ccccc1Br` (centres undefined) is inactive: -7.96%. Consider `CN(C)C(=O)c1c([N+](=O)[O-])cc([N+](=O)[O-])cc1[N+](=O)[O-]`, for which the inhibition was inactive: 20.9%. On to `CCN(CC)CC(O)COC(=O)C(O)(c1ccccc1)C1CCCCC1` (centres undefined), for which the inhibition was inactive: -1.75%. Turning to `COc1ccc(OP(C)(=O)Nc2ccc(Br)cc2)cc1` (centres undefined), the inhibition was inactive: 5.84%. The figure for `CP(=O)(Oc1ccccc1)N1CCOC1=O` (centres undefined) is inactive: 10.9%; for `CCc1ccc(OP(C)(=O)Nc2cccnc2)cc1` (centres undefined) it is inactive: -24.1%; for `COc1ccccc1OP(C)(=O)Nc1c(C)n(C)n(-c2ccccc2)c1=O` (centres undefined) it is inactive: -19.2%. Regarding `O=C(OCCCN1CCCC1)C(O)(c1ccccc1)C1CCCCC1` (centres undefined), the inhibition was inactive: -23.7%. Consider `CP(=O)(Nc1ccc2c(c1)OCCO2)Oc1ccccc1` (centres undefined), for which the inhibition was inactive: 2.93%. The figure for `O=[N+]([O-])c1cc([N+](=O)[O-])c(C(F)(F)F)c([N+](=O)[O-])c1O` is inactive: 0.43%; for `Cc1ccccc1NP(C)(=O)Nc1ccccc1C` it is inactive: -21.9%. The figure for `CP(=O)(Nc1ccc(SC(F)(F)F)cc1)Oc1ccc(F)cc1` (centres undefined) is inactive: 15.2%; for `CCOP(=O)(CC)OCC` it is inactive: -0.34%. The figure for `CCOP(C)(=S)SCC(=O)NC(C)(CC)C(=O)O` (centres undefined) is inactive: -18.9%; for `O=[N+]([O-])c1cc([N+](=O)[O-])c(NCC2CCS(=O)(=O)C2)c([N+](=O)[O-])c1` (centres undefined) it is inactive: 6.86%. In the case of `Cc1cc(-c2cccc3ccccc23)c(C)cn1.O=[N+]([O-])c1cc([N+](=O)[O-])c(O)c([N+](=O)[O-])c1`, the inhibition is inactive: -19.4%. `O=[N+]([O-])c1ccc(OP2(=O)COCCO2)cc1` (centres undefined): the inhibition was inactive: -19.3%. With `Cc1c(C(c2ccc3c(c2)OCO3)c2c(C)n(C)n(-c3ccccc3)c2=O)c(=O)n(-c2ccccc2)n1C.O=[N+]([O-])c1cc([N+](=O)[O-])c(O)c([N+](=O)[O-])c1`, the inhibition was inactive: 16.2%. The figure for `COc1ccc(OP(C)(=O)Nc2cccc(Br)c2)cc1` (centres undefined) is inactive: -15%; for `COc1ccc(NP(C)(=O)Oc2ccccc2OC)cc1` (centres undefined) it is inactive: -8.23%; for `CN(C)CCOC(=O)C(O)(c1ccccc1)C1CCCCC1` (centres undefined) it is inactive: 15.2%. Take `CCN(CC)CCCOC(=O)C(O)(c1ccccc1)C1CCCCC1` (centres undefined): the inhibition was inactive: 21.5%.

Regarding `Cc1c([N+](=O)[O-])cc([N+](=O)[O-])c(Br)c1[N+](=O)[O-]`, the inhibition was inactive: 14.6%.

Regarding `O=[N+]([O-])c1cc([N+](=O)[O-])c(OC2CCCCC2O)c([N+](=O)[O-])c1` (centres undefined), the inhibition was inactive: -41%. The figure for `CCCCCOc1ccc(NP(C)(=O)Oc2ccc(Cl)cc2Cl)cc1` (centres undefined) is inactive: 1.4%; for `CP(=O)(Nc1ccccc1)Oc1ccc(F)cc1` (centres undefined) it is inactive: -7.15%. The figure for `CCN(CC)CCCNc1ccccc1[N+](=O)[O-].O=[N+]([O-])c1cc([N+](=O)[O-])c(O)c([N+](=O)[O-])c1` is inactive: -20.7%; for `COc1ccc(OP(C)(=O)Nc2ccc(SC(F)(F)F)cc2)cc1` (centres undefined) it is inactive: -8.64%. On to `CCOC(=O)c1ccc(NP(C)(=O)Oc2ccc(F)cc2)cc1` (centres undefined), for which the inhibition was inactive: -20.2%. The figure for `O=C(OCCN1CCN(CCOCc2ccccc2)CC1)C(O)(c1ccccc1)c1ccccc1` is inactive: -13.5%; for `O=C(OC1CN2CCC1CC2)c1ccc([N+](=O)[O-])cc1` (centres undefined) it is inactive: 14.5%. With `COc1ccc2c(c1O)-c1c(O)c(OC)cc3c1[C@H](C2)[N+](C)(C)CC3.O=[N+]([O-])c1cc([N+](=O)[O-])c([O-])c([N+](=O)[O-])c1[O-]`, the inhibition is inactive: -8.49%. Take `O=[N+]([O-])c1cc([N+](=O)[O-])c(Nc2ccc(Cl)cc2)c([N+](=O)[O-])c1`: the inhibition was inactive: -148%.

In the case of `CC(C)c1ccc(OP(C)(=O)Nc2ccc(SC(F)(F)F)cc2)cc1` (centres undefined), the inhibition is inactive: -11.5%. The figure for `CP(=O)(Nc1ccccc1F)Oc1ccccc1` (centres undefined) is inactive: 15.1%. The figure for `CP(=O)(Nc1cccc(Br)c1)Oc1ccccc1` (centres undefined) is inactive: 13.5%; for `Cc1cc(C)cc(OP(C)(=O)Nc2ccccn2)c1` (centres undefined) it is inactive: -2.99%; for `Cc1ccc(C)c(NP(C)(=O)Oc2ccccc2)c1` (centres undefined) it is inactive: -35.7%.

As for `COc1ccccc1OP(C)(=O)Nc1cccc(Br)c1` (centres undefined), the inhibition is inactive: -31.5%. Regarding `Cc1cc(C)cc(OP(C)(=O)Nc2ccc(C)cc2C)c1` (centres undefined), the inhibition is inactive: 11%. The figure for `CCOC(=O)c1ccc(NP(C)(=O)Oc2cc(C)cc(C)c2)cc1` (centres undefined) is inactive: 15.3%; for `CC1=NCCc2c1[nH]c1ccccc21.O=[N+]([O-])c1cc([N+](=O)[O-])c(O)c([N+](=O)[O-])c1` it is inactive: 7.43%.

For the compound `O=C(O)c1cccc(Nc2c([N+](=O)[O-])cc([N+](=O)[O-])cc2[N+](=O)[O-])c1`, the inhibition is inactive: 14.1%. On to `CN1CCCCC1COC(=O)C1(O)c2ccccc2CCc2ccccc21` (centres undefined), for which the inhibition was inactive: 7.61%. The figure for `COc1ccccc1OP(C)(=O)Nc1c(C)cccc1C` (centres undefined) is inactive: -6.18%; for `CP(=O)(Nc1ccc(SC(F)(F)F)cc1)Oc1ccccc1` (centres undefined) it is inactive: 21.6%; for `CCCOc1ccc(NP(C)(=O)Oc2ccc(Cl)cc2)cc1` (centres undefined) it is inactive: 25.4%. The figure for `COc1ccc(-c2ccccn2)cc1.O=[N+]([O-])c1cc([N+](=O)[O-])c(O)c([N+](=O)[O-])c1` is inactive: -63.9%; for `O=[N+]([O-])c1cc([N+](=O)[O-])c(Nc2nnnn2CCO)c([N+](=O)[O-])c1` it is inactive: -11.3%. As for `CCOC(=O)C(CC)C1=NC(C)(C)Cc2ccccc21.O=[N+]([O-])c1cc([N+](=O)[O-])c(O)c([N+](=O)[O-])c1` (centres undefined), the inhibition was inactive: -43.2%. The figure for `O=[N+]([O-])c1cc([N+](=O)[O-])c(-c2cnn(-c3ccccc3)c2)c([N+](=O)[O-])c1` is inactive: 5.49%. In the case of `Cc1nc2ccc3ccccc3c2s1.O=[N+]([O-])c1cc([N+](=O)[O-])c(O)c([N+](=O)[O-])c1`, the inhibition was inactive: -29.2%.

As to `O=[N+]([O-])c1cc([N+](=O)[O-])c(-n2nnc3ccccc32)c([N+](=O)[O-])c1`, the inhibition is inactive: 15.2%. Turning to `CN(Cc1cccnc1)C(=O)COc1ccc(Cl)c(Cl)c1.O=[N+]([O-])c1cc([N+](=O)[O-])c(O)c([N+](=O)[O-])c1`, the inhibition was inactive: -40.6%. The figure for `CCOP(C)(=S)SCC(=O)NC(C)C(=O)O` (centres undefined) is inactive: -3.19%; for `O=[N+]([O-])c1cc([N+](=O)[O-])c(O)c([N+](=O)[O-])c1.c1ccc(Oc2ccncc2)cc1` it is inactive: 22.4%; for `CCOC(=O)c1ccc(NP(C)(=O)Oc2ccc(OC)cc2)cc1` (centres undefined) it is inactive: 3.08%. With `CP(=O)(Nc1ccccn1)Oc1ccc(Cl)cc1` (centres undefined), the inhibition was inactive: -1.47%. `CP(=O)(Nc1ccc(SC(F)(F)F)cc1)Oc1ccc(Cl)cc1` (centres undefined): the inhibition is inactive: -0.12%.

In the case of `Cc1cccc(C)c1OP(C)(=O)Nc1ccc(SC(F)(F)F)cc1` (centres undefined), the inhibition was inactive: -27.4%. In the case of `CP(=O)(Oc1ccccc1)OC(c1ccccc1)C(F)(F)F` (centres undefined), the inhibition was inactive: 0.9%.

For `CCc1ccc(OP(C)(=O)N2CCN(c3ccc([N+](=O)[O-])cc3)CC2)cc1` (centres undefined), the inhibition was inactive: 14.9%. The figure for `CP(=O)(NC(=O)Nc1ccccc1)Oc1ccccc1` (centres undefined) is inactive: 12.2%. On to `Cc1cc(C)cc(OP(C)(=O)Nc2ccc(SC(F)(F)F)cc2)c1` (centres undefined), for which the inhibition was inactive: -3.88%. Consider `CP(=S)(Nn1cnnc1)Oc1ccccc1` (centres undefined), for which the inhibition was inactive: -2.55%. As for `COc1ccccc1OP(C)(=O)Nc1ccccc1` (centres undefined), the inhibition was inactive: -9.51%. The figure for `CP(=O)(Nc1ccccc1Br)Oc1ccccc1` (centres undefined) is inactive: 20.2%. The figure for `CCOC(=O)c1ccc(NP(C)(=O)Oc2ccccc2)cc1` (centres undefined) is inactive: -19.7%; for `COc1ccccc1OP(C)(=O)Nc1ccc(C)cc1` (centres undefined) it is inactive: 2.63%. The figure for `Cc1ccc(NP(C)(=O)Oc2ccccc2)c(C)c1` (centres undefined) is inactive: -0.72%; for `COc1ccccc1OP(C)(=O)Nc1cc(Cl)ccc1C` (centres undefined) it is inactive: -4.65%.

`COc1ccc(OP(C)(=O)Nc2cccc(F)c2)cc1` (centres undefined): the inhibition was inactive: -15.9%. Turning to `Cc1cc(C)cc(OP(C)(N)=O)c1` (centres undefined), the inhibition was inactive: -25.2%. The figure for `O=[N+]([O-])c1cc([N+](=O)[O-])c(Nc2cccnc2)c([N+](=O)[O-])c1` is inactive: 10.7%; for `CC(C)(C)c1ccc(OP(C)(=O)Nc2ccc(SC(F)(F)F)cc2)cc1` (centres undefined) it is inactive: 7.47%. `Cc1cccc(C)c1OP(C)(N)=O` (centres undefined): the inhibition was inactive: -1.48%.

Regarding `O=[N+]([O-])c1ccc2c(c1)C=Nc1ccccc1O2`, the inhibition was inactive: -2.11%. The figure for `COc1ccccc1-c1ccccn1.O=[N+]([O-])c1cc([N+](=O)[O-])c(O)c([N+](=O)[O-])c1` is inactive: -12.5%; for `CCN(CC)CCCOC(=O)C(O)(c1ccccc1)c1ccccc1` it is inactive: -17.6%.
